Here are results for one compound from patent US20250171404A1, “PCNA INHIBITORS AND USES THEREOF” (CITY OF HOPE, priority 2022, published 2025).

This assay has as its system SK-N-AS cells heterozygous or homozygous of the mutant PCNA allele (L47V). As to the kind of experiment: Growth of PCNA L47V mutant cell lines (CRISPR). Conditions: compared to wildtype parent SK-N-AS cells; 72 hrs.

With `COc1cccc(Oc2ccccc2NC(=O)CNC(=O)c2cccc3ccccc23)c1` [AOH1996, N-(2-((2-(3-methoxyphenoxy)phenyl)amino)-2-oxoethyl)-1-naphthamide], the “sensitivity of L47V PCNA mutant cell lines to growth inhibition” value is recorded as “less sensitive to growth inhibition by AOH1996”.
